System: Ileum
Assay: Inhibition of histamine-induced guinea pig ileum contraction
Type: functional, tissue-based
Conditions: Cavia porcellus

## C=C[C@@]12COC(=O)C(=C)[C@@H]1[C@H]1OC(=O)C(=C)[C@@H]1[C@@H](O)C2 [VERNOLEPIN]
  Activity: tde

From ChEMBL document CHEMBL1151413, “Isolation and pharmacological characterization of vernolepin” (J Nat Prod, 1983)
